Apparent affinities of Ab-14 variants for a coronavirus HR2 peptide

Binding partner: SARS-CoV-2 spike HR2 peptide, sequence PDVDLGDISGINAS.

Parent scFv Ab-14: VH joined to VL by the linker GGGGSGGGGSGGGGS. Changes lie in the light chain CDRs alone.
VH: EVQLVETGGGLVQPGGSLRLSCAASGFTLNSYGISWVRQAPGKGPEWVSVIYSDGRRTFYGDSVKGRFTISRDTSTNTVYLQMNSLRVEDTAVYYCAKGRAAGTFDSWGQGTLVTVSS
VL: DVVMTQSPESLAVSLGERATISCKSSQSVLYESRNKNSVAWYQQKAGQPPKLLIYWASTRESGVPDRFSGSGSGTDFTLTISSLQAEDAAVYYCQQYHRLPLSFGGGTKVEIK

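Phage display of a naive human antibody library on the peptide gave the parent. The variants were designed computationally from a first round of random CDR variants and then made and measured. Several design methods are mixed in this list. In AlphaSeq, yeast of one mating type display the scFv and yeast of the other type display the target. Mating (16 h, 30 °C) was followed by selection of diploids and sequencing of their barcodes. Scores were corrected for input abundance and mapped to Kd with protein pairs of known affinity run in the same pool. There are six technical replicates.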

Variants are written as CDR1, CDR2 and CDR3 of the light chain (limits as in the source). Parent: KSSQSVLYESRNKNSVA, WASTRES, QQYHRLPLS.
Values are log10 of the apparent Kd in nM; lower means stronger binding.
Replicates are averaged; those with no signal do not enter the mean.
"no signal" means that the variant was in the library but no mating with the target was seen in any replicate; the authors take this as a sign of poor binding, and no number exists.
Of ten entries with the parent sequence, four were seen in most replicates (averages 0.34 to 2.37), three in one and three in none, so single entries are noisy.

| mean, log10 nM | seen in | CDR-L1 | CDR-L2 | CDR-L3 |
|---|---|---|---|---|
| 0.43 | 6/6 | KSSNSGLYESRMKNSVA | EASTRES | QQYHRLPLS |
| 0.98 | 5/6 | TISQLTSSFSQNINNVA | EVSTRLN | QQYDRLPLS |
| 0.69 | 6/6 | HMSMLTLSGMRHTNSVA | QMTTRVN | QQYDRLPLM |
| no signal | 0/6 | KSSQSVLYIGRNKNSVA | WASTRPS | QQYHRLPLS |
| 0.51 | 6/6 | KSSQSQLYESRNKNSIA | GASTREC | QQYHRLTLS |
| 2.21 | 6/6 | HITMGMYVMGRHNSSIA | QAETRAK | QQYDRLPLI |
| 2.73 | 3/6 | KSSQSVLYELRNKNSVA | WASTRES | QQKGRLPLS |
| -0.02 | 6/6 | KLEQSQGYESRNKNSVA | NASTRES | QQYHRLPLS |
| 2.20 | 6/6 | ALQDVTRMESNKKNSIA | DMSTRES | QQYHRLPLS |
| 0.56 | 6/6 | KFSQWVWYESRTKNSVA | NASTRES | QQYHRLPLS |
| 2.73 | 1/6 | MIAESSGYQSRNKNSVA | DNSTRED | QCYDRLPLS |
| 1.02 | 6/6 | KIGMTLNQLMHQKNNVA | DLVEREN | QQYFRLPLS |
| 0.71 | 6/6 | KMSQSVLYESHNKNSVA | WASTRES | QQYHRLPLS |
| 0.00 | 6/6 | KLSQSNLYESRNKNSVA | NASTRES | QDYHRLPLS |
| 0.82 | 6/6 | NVRDSLGYEQNVGSAVA | EASQVED | QQYYTLPLA |
| no signal | 0/6 | KSSQGVLLESRNKNSVR | DASTRES | QQYHRLPLS |
| -0.28 | 6/6 | KVSQSMLYESRNKNSVA | HASQRES | QQYHRLPLS |
| 0.20 | 6/6 | KISQSVLYESRNKNSVA | RASTRES | QQYHRLPLS |
| 0.77 | 6/6 | IISQSMLYETATHNSIA | QTSTREE | QQYHHLPLS |
| -0.03 | 6/6 | KQSQSKLCESRNKNSVA | DASTRES | QQYHRLPLS |
| 2.25 | 2/6 | IISETYGNMVTKKNSIA | DNTTRED | QQYDRLPLS |
| 1.00 | 6/6 | HITYGLQVAGRHSKSIA | QAETRAK | QQYDRLPLI |
| 2.31 | 5/6 | KSQQSVIYESTNKNSVA | WASTRES | QQYHRLPLS |
| 0.84 | 6/6 | SMHPFDNAIGKGTNNIA | HVSVRAS | QQYARLPLV |
| 0.07 | 6/6 | KLQQSVEYESRNKNSVA | NASTREQ | QQYHRLPLS |
| 0.90 | 6/6 | VMFMGLYWNNDEHYAIA | DVTMREK | QQYHRLPLQ |
| -0.10 | 6/6 | KLSQSVLYESRLKNNVA | NASTRES | QQYHRLPLS |
| -0.06 | 6/6 | KFSPSVLYESRMKNSVA | NASTRES | QQYHRLPLS |
| 0.99 | 5/6 | KITWYQLEMRDPGSAVA | EASVRYN | QQYWRLPLE |
| 0.83 | 6/6 | KISQMVAYESTWHGAIA | QTSEREE | QQYHRLPFS |
| 0.94 | 6/6 | KLSQSNKYESRMKNSVA | NASQREQ | QQYHRLPLS |
| 1.06 | 6/6 | KIQDNLGTLMEQINSVA | SSEEKSD | QSYFRLPLI |
| 1.09 | 6/6 | NMTGTKEMQSNNINNIA | ENNERFQ | QQYFQLPLS |
| 1.29 | 6/6 | KISQMVRVGSTKNNSIA | EEATRAD | QQYHRLPLS |
| 0.55 | 6/6 | TISQVMNTMTRHGNNVA | DLAERED | QQYFRLPLS |
| 0.17 | 6/6 | FLSQSYLYESRNKNSVA | NASTRES | QQYHRLPLS |
| 1.31 | 6/6 | IIDQIMYHGNKSANSIA | QASQRLN | QQYHHLPLI |
| 1.01 | 6/6 | KSSNSVLYESRNKNSVA | HASTRES | QQYHRLPLS |
| 3.57 | 1/6 | KSSQSVLYESRAKNSVA | WAYTRES | QQYHRLPLS |
| -0.77 | 6/6 | KLQISPGYEQRNKNSVA | EASTRCD | QQYHRLPLS |
| 1.40 | 6/6 | KLSQSQLYESRMKNSVA | NASQRLS | QQYHRLPLS |
| 0.88 | 6/6 | KASPSMEYESRNKQSVA | HASLRLE | QQYHRLPLS |
| -0.13 | 6/6 | KLDQDDLYENRNCNSVA | QASTREQ | QQYHRLPLS |
| 0.32 | 6/6 | KLSMSYLYESRNKNSVA | EASTRES | QQYHRLPLS |
| 0.77 | 6/6 | KLPLATMVESVSKNNVA | ELSTRGS | QQYNRLPLS |
| -0.09 | 6/6 | KLSQSQLYESRNVNAVA | NASQRMS | QQYHRLPLS |
| 2.44 | 5/6 | KSSQSVLQESRNDNSVA | WASTRES | QQYHRMPLS |
| 0.30 | 6/6 | MISQLGNMGQFAINSVA | QASLRND | QQYDRLPLA |
| -0.33 | 6/6 | KLSQMDLYESRMSNSVA | MASTRMV | QQYHRLPLS |
| 0.20 | 6/6 | KQSQSVLQESVNKNSVA | DASTRES | QQYHRLPLS |
| 1.72 | 6/6 | KSSQLVDYTSRNKNSVA | YASTRES | QQYHRLPLS |
| 2.12 | 2/6 | KSSQRVLYESRNKISVA | WASTRES | QQYHRLPLS |
| 0.54 | 6/6 | KLRQSTLYESRNKNSVA | WASTREE | QQYHRLPLS |
| 1.23 | 6/6 | KSSPSSLAESGNKNSIA | WASTRES | QQYHRLPLS |
| no signal | 0/6 | KISQSVLYESRNKNSVA | WASQRES | QQYPRLPLS |
| no signal | 0/6 | KSSVSVLYESLNKNSVA | WASTRES | QQYHRLPLS |
| -0.07 | 6/6 | KSSISYLAESRNKNSVA | EASTRES | QQYHRLPLS |
| no signal | 0/6 | KCQILVEQESRQKNSVA | NASKRES | QQYHRLPLS |
| 0.25 | 6/6 | KVSQSVLYESRNKNSVA | EASTRES | QQYHRLPLM |
| 0.63 | 6/6 | KSSQSVLYESRNANSVA | KASTRES | QQYHRLPLS |
| 1.54 | 5/6 | IVSQLMLWGMHAKNSIA | EAEMRIN | QQYHRLPLI |
| no signal | 0/6 | KSSQSWLYESRNTNSVA | NASTRES | QQYHRLILS |
| -0.47 | 6/6 | KLSQSWLYESRNKNNVA | EASTRMS | QQYHRLPLS |
| -0.15 | 6/6 | KLSQWQLYESRNKNNVA | SASTREM | QQYHRLPLS |
| 0.77 | 6/6 | KSSQSVLMESNNKNSVA | WASKRES | QQYHRLPLS |
| 0.27 | 6/6 | WISQSVLYESRDKNSVA | NASTRLS | QQYHRLPLS |
| 0.11 | 6/6 | KVSQSELYESRNKNSVA | NASKRES | QQYHRLPLS |
| -0.14 | 6/6 | KSSQEKLYESRNKNSVA | DASTRES | QQYHRLPLS |
| -0.09 | 6/6 | HSSPSVAYESRNKNSVA | NASTRES | QQYHRLPLS |
| 0.50 | 6/6 | KVSGSHDYESRNKNSVA | HASTRCS | QDYHRLPLS |
| 0.35 | 6/6 | HQSFSVLYESRNKNSVA | NGSTREV | QQYHRLPLS |
| 0.12 | 6/6 | HLSQSYDLESVHKNSIA | DLMTRES | QQYHRLPLS |

The authors averaged sequences with at least three values out of six and counted those with two or fewer as poor binders.
As a blank, each scFv also met three strains without target: over all light chain designs, 4% of these pairings were detected, typically at 2.64 and seldom below 1.59.
A sequence measured in both rounds can read differently, since the two assays cover different ranges.

Data: MIT Lincoln Laboratory AlphaSeq set, Li et al. 2023, doi:10.1038/s41467-023-39022-2, as distributed in FLAb.